The subject of experiment [1] is cellular pERK in Kuramochi (WT KRAS) cell-line. The experiment in a line: Cell based pERK assay (HTRF), Kuramochi. As to conditions: Kuramochi (WT KRAS) cells, 2 hours incubation. The protocol: (§1) Compounds were tested in a 384-well assay format for their ability to inhibit cellular pERK in Kuramochi (WT KRAS), MIA-PaCa-2 (KRAS-G12C), ASPC-1 (KRAS G12D), and NCI-H441 (KRAS-G12V) cell-lines. Compounds were serially diluted (1:3) in DMSO. On day −1, 80 uL of cells were plated per well in the 384 well tissue-culture plates (Greiner: Cat #781080) to seed 5000 cells per wells of AsPC-1 or 7500 cells of MIA-PaCa-2, NCI-H441, and Kuramochi cell lines in RPMI (Corning: Cat #10-040-CM) with 10% fetal bovine serum (FBS) (HyClone: Cat #SH30071-03) and 1× penicillin-streptomycin-glutamate (PSG) (Corning: Cat #30-009-CI) for […] and Kuramochi cell lines and DMEM (Corning: Cat #15-018-CM) with […] and 1× PSG for MKA-PaCa-2 cell line. The plates were then incubated overnight at 37° C. and 5% CO2. On day 0, 400 nL of compound/well was added into the cell plates and mixed 5 times by pipetting using a Beckmann Biomek FX. The cell plates were then incubated for 2 hours at 37° C. and 5% CO2. HTRF Advanced Phospho-ERK1/2 ([…]) Detection Kits (PerkinElmer: Cat #64AERPEG) were used to prepare the lysis and detection solution according to manufacturer protocol. Following the 2 hour incubation, 70 μL of medium was aspirated from the plates and 10 uL of lysis and detection solution was added to the plates using a Biotek EL406 washer and dispenser. Plates were sealed and stored overnight at room temperature. HTRF ratio (665 nm/615 nm) was read by Envision multimode reader (PerkinElmer) the next day. The TR-FRET ratios were normalized to a positive (saturating concentration of known inhibitor) and negative (DMSO) control and plotted against the log of compound concentration. IC50 values were defined as the compound concentration that causes a […] in normalized signal and were calculated using a sigmoidal dose-response model to generate curve fits.
On the technique in general: Time-resolved FRET reads energy transfer from a long-lived donor to a nearby acceptor.

Experiment [2] relates to cellular pERK in NCI-H441 (KRAS-G12V) cell-line. The experiment in a line: Cell based pERK assay (HTRF), NCI-H441. As to conditions: NCI-H441 (KRAS-G12V) cells, 2 hours incubation. The protocol: as §1
The test system of experiment [3] is cellular pERK in MIA-PaCa-2 (KRAS-G12C) cell-line. Briefly: Cell based pERK assay (HTRF), MIA-PaCa-2. As to conditions: MIA-PaCa-2 (KRAS-G12C) cells, 2 hours incubation; read-out: MIAPaCa2 pERK EC50. The protocol:
as §1

In experiment [4] the test system is cellular pERK in ASPC-1 (KRAS G12D) cell-line. The experiment in a line: Cell based pERK assay (HTRF), ASPC-1. Particulars: ASPC-1 (KRAS G12D) cells, 2 hours incubation; read-out: AsPC1 pERK EC50. The protocol: as §1

The term EC50 denotes the concentration that produces a half-maximal response. Consider `C#Cc1c(F)ccc2cc(O)cc(-c3cc4c5c(nc(OC[C@@]67CCCN6C[C@H](F)C7)nc5c3F)N3CCCOC[C@H]3CC4)c12` (single isomer, unassigned) [Example 4-1], for which the 50% effective concentration (EC50) stood at 6.48 nM in experiment [1], 4.28 nM in experiment [2], 2.72 nM in experiment [3] and 13.7 nM in experiment [4].

As to `C#Cc1c(F)ccc2cc(O)cc(-c3cc4c5c(nc(OC[C@@]67CCCN6C[C@H](F)C7)nc5c3F)N3CCCOC[C@@H]3CC4)c12` (single isomer, unassigned) [Example 4-2], the half-maximal effective concentration (EC50) in experiment [1] turned out to be 3.07 nM; in experiment [2] it was 3.38 nM; in experiment [3] it was 1.55 nM; in experiment [4], 9.17 nM.

For `C#Cc1c(F)ccc2cc(O)cc(-c3cc4c5c(nc(OC[C@@]67CCCN6C[C@H](F)C7)nc5c3F)N3CCCOCC3CC4)c12` (mixture of isomers) [Example 3-1, 5-ethynyl-6-fluoro-4-(10-fluoro-8-(((2R,7aS)-2-fluorotetrahydro-1H-pyrrolizin-7a(5H)-yl)methoxy)-1,4,5,13,14,14a-hexahydro-3H-[1,4]oxazepino[4′,3′:1,7]azepino[2,3,4-de]quinazolin-11-yl)naphthalen-2-ol], the EC50 in experiment [1] turned out to be 4.53 nM; in experiment [2] it was 2.86 nM; in experiment [3] it was 2.07 nM; in experiment [4], 9.37 nM.

Values taken from patent US20240383922A1, “KRAS Modulating Compounds” (Gilead Sciences, Inc., priority 2023, published 2024).
